The experiment addresses COP9 signalosome complex subunit 3 (UniProt Q9UNS2). Briefly: cross-link between two proteins; cross-linking mass spectrometry.

For the substance “COP9 signalosome complex subunit 8, Q99627”, the “listed as a hit” value is “yes”.

The values above are taken from publication PMC4878873.
